From patent US20240245770A1, “COMPOSITIONS AND METHODS FOR TREATING NEUROMUSCULAR DISORDERS” (The Regents of the University of California, priority 2019, published 2024)

Test system: Sorted CD8+ T cells
Experiment: CD8+ T cell Luminex
Format: cell-based, human
Method: Increased overall cytokine/chemokine/growth factor/ligands in CD8+ T cells of patient untreated or activated with IL-2 or anti-CD3/28 or IL-2+sAJ2 when compared to healthy twin (Tables 59-62). CD8+ T cell Luminex. Sorted CD8+ T cells were left untreated, treated with IL-2 (1000 U/mL) or treated with the combination of IL-2+anti-CD3/28 antibodies (25 μl/mL) or IL-2+sAJ2 (Cells:sAJ2 1:20). After an overnight treatment at 37° C., the supernatants were harvested and the levels of cytokine/chemokine/growth factor/ligands secretion were measured using multiplex luminex assay (Millipore, MA) (Tables 59-62).
Increased overall cytokine/chemokine/growth factor/ligands in CD8+ T cells of patient untreated or activated with IL-2 or anti-CD3/28 or IL-2+sAJ2 when compared to healthy twin (Tables 81-84). CD8+ T cell Luminex. Sorted CD8+ T cells were left untreated, treated with IL-2 (1000 U/mL) or treated with the combination of IL-2+anti-CD3/28 antibodies (25 μl/mL) or IL-2+sAJ2 (Cells:sAJ2 1:20). After an overnight treatment at 37° C., the supernatants were harvested and the levels of cytokine/chemokine/growth factor/ligands secretion were measured using multiplex luminex assay.
Increased overall cytokine/chemokine/growth factor/ligands in CD8+ T cells of patients untreated or activated with IL-2 or anti-CD3/28 or IL-2+sAJ2 when compared to healthy twin (Tables 90-94). CD8+ T cell Luminex. Sorted CD8+ T cells were left untreated, treated with IL-2 (1000 U/mL) or treated with the combination of IL-2+anti-CD3/28 antibodies (25 μl/mL) or IL-2+sAJ2 (Cells:sAJ2 1:20). After an overnight treatment at 37° C., the supernatants were harvested and the levels of cytokine/chemokine/growth factor/ligands secretion were measured using multiplex luminex assay.
CD8+ T cell Luminex. Sorted CD8+ T cells were treated with the combination of IL-2+anti-CD3/28 antibodies (25 μl/mL). After an overnight treatment at 37° C., the supernatants were harvested and the levels of cytokine/chemokine/growth factor/ligands secretion were measured using multiplex luminex assay (Table 157).

[1] = CD8+ T cells of H103 JC (ALS patient)
[2] = CD8+ T cells of H103 JC (ALS patient), Table 94
[3] = CD8+ T cells of H104 TC (healthy twin)
[4] = CD8+ T cells of H104 TC (healthy twin), Table 94
[5] = CD8+ T cells of H105 RS (ALS patient)

Substance: Recombinant human IL-2
- EGF [1]: 78 pg/mL
- Eotaxin [1]: 31 pg/mL
- FGF2 [1]: 52 pg/mL
- FIT3L [1]: 50 pg/mL
- Fractalkine [1]: 228 pg/mL
- GCSF [1]: 292 pg/mL
- GMCSF [1]: 26 pg/mL
- GRO [1]: 3406 pg/mL
- IFNa2 [1]: 66 pg/mL
- IFNg [1]: 31 pg/mL
- IL-1Ra [1]: 1022 pg/mL
- IL-1a [1]: 16 pg/mL
- IL-1b [1]: 41 pg/mL
- IL-3 [1]: 3 pg/mL
- IL-4 [1]: 209 pg/mL
- IL-5 [1]: 6 pg/mL
- IL-6 [1]: 82 pg/mL
- IL-7 [1]: 32 pg/mL
- IL-8 [1]: 6674 pg/mL
- IL-9 [1]: 1149 pg/mL
- IL-10 [1]: 51 pg/mL
- IL-12p40 [1]: 47 pg/mL
- IL-12p70 [1]: 12 pg/mL
- IL-13 [1]: 23 pg/mL
- IL-15 [1]: 21 pg/mL
- IL-17a [1]: 11 pg/mL
- IP-10 [1]: 81 pg/mL
- MCP1 [1]: 9873 pg/mL
- MCP3 [1]: 112 pg/mL
- MDC [1]: 910 pg/mL
- MIP1a [1]: 212 pg/mL
- MIP1b [1]: 455 pg/mL
- PDGF-AB/BB [1]: 54 pg/mL
- PDGFaa [1]: 86 pg/mL
- Rantes [1]: 2377 pg/mL
- TGFa [1]: 6 pg/mL
- TNFa [1]: 37 pg/mL
- TNFb [1]: 15 pg/mL
- VEGF [1]: 1370 pg/mL
- sCD40L [1]: 37 pg/mL
- PDGF-AB/BB [2]: 54 pg/mL
- PDGFaa [2]: 86 pg/mL
- sCD40L [2]: 37 pg/mL
- EGF [3]: 63 pg/mL
- Eotaxin [3]: 27 pg/mL
- FGF2 [3]: 48 pg/mL
- FIT3L [3]: 43 pg/mL
- Fractalkine [3]: 157 pg/mL
- GCSF [3]: 181 pg/mL
- GMCSF [3]: 21 pg/mL
- GRO [3]: 288 pg/mL
- IFNa2 [3]: 43 pg/mL
- IFNg [3]: 22 pg/mL
- IL-1Ra [3]: 723 pg/mL
- IL-1a [3]: 13 pg/mL
- IL-1b [3]: 18 pg/mL
- IL-3 [3]: 3 pg/mL
- IL-4 [3]: 113 pg/mL
- IL-5 [3]: 4 pg/mL
- IL-6 [3]: 15 pg/mL
- IL-7 [3]: 29 pg/mL
- IL-8 [3]: 1084 pg/mL
- IL-9 [3]: 1084 pg/mL
- IL-10 [3]: 21 pg/mL
- IL-12p40 [3]: 47 pg/mL
- IL-12p70 [3]: 10 pg/mL
- IL-13 [3]: 20 pg/mL
- IL-15 [3]: 21 pg/mL
- IL-17a [3]: 10 pg/mL
- IP-10 [3]: 163 pg/mL
- MCP1 [3]: 1835 pg/mL
- MCP3 [3]: 26 pg/mL
- MDC [3]: 325 pg/mL
- MIP1a [3]: 135 pg/mL
- MIP1b [3]: 234 pg/mL
- PDGF-AB/BB [3]: 52 pg/mL
- PDGFaa [3]: 58 pg/mL
- Rantes [3]: 1889 pg/mL
- TGFa [3]: 4 pg/mL
- TNFa [3]: 29 pg/mL
- TNFb [3]: 12 pg/mL
- VEGF [3]: 1022 pg/mL
- sCD40L [3]: 26 pg/mL
- PDGF-AB/BB [4]: 52 pg/mL
- PDGFaa [4]: 58 pg/mL
- sCD40L [4]: 26 pg/mL
- EGF [5]: 97 pg/mL
- Eotaxin [5]: 31 pg/mL
- FGF2 [5]: 52 pg/mL
- FIT3L [5]: 51 pg/mL
- Fractalkine [5]: 228 pg/mL
- GCSF [5]: 248 pg/mL
- GMCSF [5]: 61 pg/mL
- GRO [5]: 611 pg/mL
- IFNa2 [5]: 65 pg/mL
- IFNg [5]: 334 pg/mL
- IL-1Ra [5]: 965 pg/mL
- IL-1a [5]: 16 pg/mL
- IL-1b [5]: 62 pg/mL
- IL-3 [5]: 3 pg/mL
- IL-4 [5]: 124 pg/mL
- IL-5 [5]: 6 pg/mL
- IL-6 [5]: 61 pg/mL
- IL-7 [5]: 30 pg/mL
- IL-8 [5]: 3406 pg/mL
- IL-9 [5]: 1149 pg/mL
- IL-10 [5]: 23 pg/mL
- IL-12p40 [5]: 50 pg/mL
- IL-12p70 [5]: 15 pg/mL
- IL-13 [5]: 26 pg/mL
- IL-15 [5]: 21 pg/mL
- IL-17a [5]: 11 pg/mL
- IP-10 [5]: 192 pg/mL
- MCP1 [5]: 2893 pg/mL
- MCP3 [5]: 28 pg/mL
- MDC [5]: 197 pg/mL
- MIP1a [5]: 317 pg/mL
